Molecular target: Adenosine receptor A1 (Rattus norvegicus, UniProt P25099)
Assay: Binding affinity at Adenosine A1 receptor in rat brain cortical membrane using [3H]N6-R-phenylisopropyladenosine (R-PIA) as radioligand
Assay type: cell membranes

By UniProt entry, the sequences of proteins in these tests, tags left out.
UniProt P25099, whole entry: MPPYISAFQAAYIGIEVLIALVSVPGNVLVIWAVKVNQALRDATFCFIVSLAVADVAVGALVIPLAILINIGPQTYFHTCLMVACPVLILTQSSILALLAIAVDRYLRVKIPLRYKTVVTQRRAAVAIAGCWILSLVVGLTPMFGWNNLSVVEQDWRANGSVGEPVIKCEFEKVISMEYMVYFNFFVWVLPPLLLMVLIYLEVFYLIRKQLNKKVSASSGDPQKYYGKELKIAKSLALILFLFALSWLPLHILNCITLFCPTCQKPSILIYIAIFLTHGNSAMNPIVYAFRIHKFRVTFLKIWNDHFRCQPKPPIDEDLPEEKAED

Ki: 9 µM
SMILES: CCCCn1c(=O)[nH]c2nc[nH]c2c1=O

From ChEMBL document CHEMBL1126876, “Synthesis of paraxanthine analogs (1,7-disubstituted xanthines) and other xanthines unsubstituted at the 3-position: structure-activity relationships at adenosine receptors” (J Med Chem, 1993)
